Legend:
Phakopsora pachyrhizi [1] = assay: Protective control of soybean rust on soybeans, inoculation 2 days after treatment (PHAKPA P2); format: in vivo; conditions: soybean seedlings inoculated 2 days after treatment, strain with F129L in cytochrome b, % diseased leaf area, untreated controls usually higher than 85 %; for PHAKPA Disease level (%) P2 at 4 ppm: 4 ppm spray; for PHAKPA Disease level (%) P2 at 16 ppm: 16 ppm spray
Phakopsora pachyrhizi [2] = assay: Protective control of soybean rust on soybeans, inoculation six days after treatment (PHAKPA P6); format: in vivo; conditions: soybean seedlings inoculated six days after treatment, strain with F129L in cytochrome b, % diseased leaf area, untreated controls usually higher than 85 %; for PHAKPA Disease level (%) P6 at 4 ppm: 4 ppm spray; for PHAKPA Disease level (%) P6 at 16 ppm: 16 ppm spray

Structure (SMILES): CNC(=O)/C(=N/OC)c1cccc(C)c1CO/N=C(\C)c1cncc(F)c1 [Example 76]
- PHAKPA Disease level (%) P2 at 4 ppm (Phakopsora pachyrhizi [1]): 93%
- PHAKPA Disease level (%) P2 at 16 ppm (Phakopsora pachyrhizi [1]): 40%
- PHAKPA Disease level (%) P6 at 4 ppm (Phakopsora pachyrhizi [2]): 97%
- PHAKPA Disease level (%) P6 at 16 ppm (Phakopsora pachyrhizi [2]): 70%

Structure (SMILES): CNC(=O)/C(=N/OC)c1cccc(C)c1CO/N=C(\C)c1ncccc1F [Example 77]
- PHAKPA Disease level (%) P2 at 4 ppm (Phakopsora pachyrhizi [1]): 26%
- PHAKPA Disease level (%) P2 at 16 ppm (Phakopsora pachyrhizi [1]): 4%
- PHAKPA Disease level (%) P6 at 4 ppm (Phakopsora pachyrhizi [2]): 53%
- PHAKPA Disease level (%) P6 at 16 ppm (Phakopsora pachyrhizi [2]): 10%

Structure (SMILES): CNC(=O)/C(=N/OC)c1cccc(C)c1CO/N=C(\C)c1ncc(-c2ccc(F)cc2)s1 [Example 78, (2E)-2-[2-[[(E)-1-[5-(4-fluorophenyl)thiazol-2-yl]ethylideneamino]oxymethyl]-3-methyl-phenyl]-2-methoxyimino-N-methyl-acetamide]
- PHAKPA Disease level (%) P2 at 4 ppm (Phakopsora pachyrhizi [1]): 87%
- PHAKPA Disease level (%) P2 at 16 ppm (Phakopsora pachyrhizi [1]): 90%
- PHAKPA Disease level (%) P6 at 4 ppm (Phakopsora pachyrhizi [2]): 88%
- PHAKPA Disease level (%) P6 at 16 ppm (Phakopsora pachyrhizi [2]): 90%

Structure (SMILES): CO/N=C(/C(=O)OC)c1cccc(C)c1CO/N=C(\C)c1ncc(-c2ccc(F)cc2)s1 [Example 79, Methyl (2E)-2-[2-[[(E)-1-[5-(4-fluorophenyl)thiazol-2-yl]ethylideneamino]oxymethyl]-3-methyl-phenyl]-2-methoxyimino-acetate]
- PHAKPA Disease level (%) P2 at 4 ppm (Phakopsora pachyrhizi [1]): 95%
- PHAKPA Disease level (%) P2 at 16 ppm (Phakopsora pachyrhizi [1]): 92%
- PHAKPA Disease level (%) P6 at 4 ppm (Phakopsora pachyrhizi [2]): 92%
- PHAKPA Disease level (%) P6 at 16 ppm (Phakopsora pachyrhizi [2]): 85%

Structure (SMILES): CNC(=O)/C(=N/OC)c1cccc(C)c1CO/N=C(\C)c1cc(C(F)(F)F)cc(C)n1 [Example 80]
- PHAKPA Disease level (%) P2 at 4 ppm (Phakopsora pachyrhizi [1]): 4%
- PHAKPA Disease level (%) P2 at 16 ppm (Phakopsora pachyrhizi [1]): 0%
- PHAKPA Disease level (%) P6 at 4 ppm (Phakopsora pachyrhizi [2]): 15%
- PHAKPA Disease level (%) P6 at 16 ppm (Phakopsora pachyrhizi [2]): 0%

Structure (SMILES): CNC(=O)/C(=N/OC)c1cccc(C)c1CO/N=C(\C)c1cccc(C)n1 [Example 81]
- PHAKPA Disease level (%) P2 at 4 ppm (Phakopsora pachyrhizi [1]): 97%
- PHAKPA Disease level (%) P2 at 16 ppm (Phakopsora pachyrhizi [1]): 63%
- PHAKPA Disease level (%) P6 at 4 ppm (Phakopsora pachyrhizi [2]): 97%
- PHAKPA Disease level (%) P6 at 16 ppm (Phakopsora pachyrhizi [2]): 87%

Structure (SMILES): CO/N=C(/C(=O)OC)c1cccc(C)c1CO/N=C(\C)c1cncc(C(F)(F)F)c1 [Example 84, methyl (2E)-2-methoxyimino-2-[3-methyl-2-[[(E)-1-[5-(trifluoromethyl)-3-pyridyl]ethylideneamino]oxymethyl]phenyl]acetate]
- PHAKPA Disease level (%) P2 at 4 ppm (Phakopsora pachyrhizi [1]): 100%
- PHAKPA Disease level (%) P2 at 16 ppm (Phakopsora pachyrhizi [1]): 100%
- PHAKPA Disease level (%) P6 at 4 ppm (Phakopsora pachyrhizi [2]): 90%
- PHAKPA Disease level (%) P6 at 16 ppm (Phakopsora pachyrhizi [2]): 83%

Structure (SMILES): CNC(=O)/C(=N/OC)c1cccc(C)c1CO/N=C(\C)c1cncc(C(F)(F)F)c1 [Example 85, (2E)-2-methoxyimino-N-methyl-2-[3-methyl-2-[[(E)-1-[5-(trifluoromethyl)-3-pyridyl]-ethylideneamino]oxymethyl]phenyl]acetamide]
- PHAKPA Disease level (%) P2 at 4 ppm (Phakopsora pachyrhizi [1]): 100%
- PHAKPA Disease level (%) P2 at 16 ppm (Phakopsora pachyrhizi [1]): 43%
- PHAKPA Disease level (%) P6 at 4 ppm (Phakopsora pachyrhizi [2]): 100%
- PHAKPA Disease level (%) P6 at 16 ppm (Phakopsora pachyrhizi [2]): 77%

Structure (SMILES): CNC(=O)/C(=N/OC)c1cccc(C)c1CO/N=C(\C)c1cc(C(F)(F)F)cc(C#N)n1 [Example 86]
- PHAKPA Disease level (%) P2 at 4 ppm (Phakopsora pachyrhizi [1]): 100%
- PHAKPA Disease level (%) P2 at 16 ppm (Phakopsora pachyrhizi [1]): 90%
- PHAKPA Disease level (%) P6 at 4 ppm (Phakopsora pachyrhizi [2]): 97%
- PHAKPA Disease level (%) P6 at 16 ppm (Phakopsora pachyrhizi [2]): 77%

Structure (SMILES): CO/N=C(/C(=O)OC)c1cccc(C)c1CO/N=C(\C)c1cnc(Cl)c(Cl)c1 [Example 87]
- PHAKPA Disease level (%) P2 at 4 ppm (Phakopsora pachyrhizi [1]): 100%
- PHAKPA Disease level (%) P2 at 16 ppm (Phakopsora pachyrhizi [1]): 100%
- PHAKPA Disease level (%) P6 at 4 ppm (Phakopsora pachyrhizi [2]): 100%
- PHAKPA Disease level (%) P6 at 16 ppm (Phakopsora pachyrhizi [2]): 97%

Structure (SMILES): CNC(=O)/C(=N/OC)c1cccc(C)c1CO/N=C(\C)c1cnc(Cl)c(Cl)c1 [Example 88]
- PHAKPA Disease level (%) P2 at 4 ppm (Phakopsora pachyrhizi [1]): 73%
- PHAKPA Disease level (%) P2 at 16 ppm (Phakopsora pachyrhizi [1]): 20%
- PHAKPA Disease level (%) P6 at 4 ppm (Phakopsora pachyrhizi [2]): 93%
- PHAKPA Disease level (%) P6 at 16 ppm (Phakopsora pachyrhizi [2]): 28%

Structure (SMILES): CNC(=O)/C(=N/OC)c1cccc(C)c1CO/N=C(\C)c1cncc(C(F)(F)F)n1 [Example 89, (2E)-2-Methoxyimino-N-methyl-2-[3-methyl-2-[[(E)-1-[6-(trifluoromethyl)pyrazin-2-yl]ethylideneamino]oxymethyl]phenyl]acetamide]
- PHAKPA Disease level (%) P2 at 4 ppm (Phakopsora pachyrhizi [1]): 100%
- PHAKPA Disease level (%) P2 at 16 ppm (Phakopsora pachyrhizi [1]): 83%
- PHAKPA Disease level (%) P6 at 4 ppm (Phakopsora pachyrhizi [2]): 100%
- PHAKPA Disease level (%) P6 at 16 ppm (Phakopsora pachyrhizi [2]): 100%

Structure (SMILES): CNC(=O)/C(=N/OC)c1cccc(C)c1CO/N=C(\C)c1cc(N2CC(F)(F)C2)ccn1 [Example 90]
- PHAKPA Disease level (%) P2 at 4 ppm (Phakopsora pachyrhizi [1]): 95%
- PHAKPA Disease level (%) P2 at 16 ppm (Phakopsora pachyrhizi [1]): 95%
- PHAKPA Disease level (%) P6 at 4 ppm (Phakopsora pachyrhizi [2]): 70%
- PHAKPA Disease level (%) P6 at 16 ppm (Phakopsora pachyrhizi [2]): 67%

Structure (SMILES): CNC(=O)/C(=N/OC)c1cccc(C)c1CO/N=C(\C)c1ccc(Cl)nn1 [Example 92]
- PHAKPA Disease level (%) P2 at 4 ppm (Phakopsora pachyrhizi [1]): 92%
- PHAKPA Disease level (%) P2 at 16 ppm (Phakopsora pachyrhizi [1]): 90%
- PHAKPA Disease level (%) P6 at 4 ppm (Phakopsora pachyrhizi [2]): 53%
- PHAKPA Disease level (%) P6 at 16 ppm (Phakopsora pachyrhizi [2]): 53%

Structure (SMILES): CNC(=O)/C(=N/OC)c1cccc(C)c1CO/N=C(\C)c1cccc(SC)n1 [Example 93]
- PHAKPA Disease level (%) P2 at 4 ppm (Phakopsora pachyrhizi [1]): 57%
- PHAKPA Disease level (%) P2 at 16 ppm (Phakopsora pachyrhizi [1]): 16%
- PHAKPA Disease level (%) P6 at 4 ppm (Phakopsora pachyrhizi [2]): 80%
- PHAKPA Disease level (%) P6 at 16 ppm (Phakopsora pachyrhizi [2]): 37%

Structure (SMILES): CO/N=C(/C(=O)OC)c1cccc(C)c1CO/N=C(\C)c1ccnc(SC)c1 [Example 94]
- PHAKPA Disease level (%) P2 at 4 ppm (Phakopsora pachyrhizi [1]): 100%
- PHAKPA Disease level (%) P2 at 16 ppm (Phakopsora pachyrhizi [1]): 97%
- PHAKPA Disease level (%) P6 at 4 ppm (Phakopsora pachyrhizi [2]): 87%
- PHAKPA Disease level (%) P6 at 16 ppm (Phakopsora pachyrhizi [2]): 80%

Structure (SMILES): CNC(=O)/C(=N/OC)c1cccc(C)c1CO/N=C(\C)c1nc(C(F)(F)F)cs1 [Example 95]
- PHAKPA Disease level (%) P2 at 4 ppm (Phakopsora pachyrhizi [1]): 80%
- PHAKPA Disease level (%) P2 at 16 ppm (Phakopsora pachyrhizi [1]): 53%
- PHAKPA Disease level (%) P6 at 4 ppm (Phakopsora pachyrhizi [2]): 87%
- PHAKPA Disease level (%) P6 at 16 ppm (Phakopsora pachyrhizi [2]): 35%

Structure (SMILES): CO/N=C(/C(=O)OC)c1cccc(C)c1CO/N=C(\C)c1cnc(C(F)(F)F)cn1 [Example 96, Methyl (2E)-2-methoxyimino-2-[3-methyl-2-[[(E)-1-[5-(trifluoromethyl)pyrazin-2-yl]ethylideneamino]oxymethyl]phenyl]acetate]
- PHAKPA Disease level (%) P2 at 4 ppm (Phakopsora pachyrhizi [1]): 73%
- PHAKPA Disease level (%) P2 at 16 ppm (Phakopsora pachyrhizi [1]): 7%
- PHAKPA Disease level (%) P6 at 4 ppm (Phakopsora pachyrhizi [2]): 77%
- PHAKPA Disease level (%) P6 at 16 ppm (Phakopsora pachyrhizi [2]): 10%

Structure (SMILES): CNC(=O)/C(=N/OC)c1cccc(C)c1CO/N=C(\C)c1cnc(C(F)(F)F)cn1 [Example 97, (2E)-2-methoxyimino-N-methyl-2-[3-methyl-2-[[(E)-1-[5-(trifluoromethyl)pyrazin-2-yl]ethylideneamino]oxymethyl]phenyl]acetamide]
- PHAKPA Disease level (%) P2 at 4 ppm (Phakopsora pachyrhizi [1]): 3%
- PHAKPA Disease level (%) P2 at 16 ppm (Phakopsora pachyrhizi [1]): 0%
- PHAKPA Disease level (%) P6 at 4 ppm (Phakopsora pachyrhizi [2]): 14%
- PHAKPA Disease level (%) P6 at 16 ppm (Phakopsora pachyrhizi [2]): 1%

Structure (SMILES): CNC(=O)/C(=N/OC)c1cccc(C)c1CO/N=C(\C)c1cc(C(F)(F)F)c(C#N)c(Cl)n1 [Example 98]
- PHAKPA Disease level (%) P2 at 4 ppm (Phakopsora pachyrhizi [1]): 57%
- PHAKPA Disease level (%) P2 at 16 ppm (Phakopsora pachyrhizi [1]): 32%
- PHAKPA Disease level (%) P6 at 4 ppm (Phakopsora pachyrhizi [2]): 57%
- PHAKPA Disease level (%) P6 at 16 ppm (Phakopsora pachyrhizi [2]): 28%

Structure (SMILES): CNC(=O)/C(=N/OC)c1cccc(C)c1CO/N=C(\C)c1cc(C(F)(F)F)c(C#N)cn1 [Example 99]
- PHAKPA Disease level (%) P2 at 4 ppm (Phakopsora pachyrhizi [1]): 23%
- PHAKPA Disease level (%) P2 at 16 ppm (Phakopsora pachyrhizi [1]): 1%
- PHAKPA Disease level (%) P6 at 4 ppm (Phakopsora pachyrhizi [2]): 9%
- PHAKPA Disease level (%) P6 at 16 ppm (Phakopsora pachyrhizi [2]): 2%

Structure (SMILES): CO/N=C(/C(=O)OC)c1cccc(C)c1CO/N=C(\C)c1cnc(C)c(F)c1 [Example 100]
- PHAKPA Disease level (%) P2 at 4 ppm (Phakopsora pachyrhizi [1]): 100%
- PHAKPA Disease level (%) P2 at 16 ppm (Phakopsora pachyrhizi [1]): 100%
- PHAKPA Disease level (%) P6 at 4 ppm (Phakopsora pachyrhizi [2]): 100%
- PHAKPA Disease level (%) P6 at 16 ppm (Phakopsora pachyrhizi [2]): 97%

Structure (SMILES): CO/N=C(/C(=O)OC)c1cccc(C)c1CO/N=C(\C)c1cccc(F)n1 [Example 106]
- PHAKPA Disease level (%) P2 at 4 ppm (Phakopsora pachyrhizi [1]): 93%
- PHAKPA Disease level (%) P2 at 16 ppm (Phakopsora pachyrhizi [1]): 70%
- PHAKPA Disease level (%) P6 at 4 ppm (Phakopsora pachyrhizi [2]): 93%
- PHAKPA Disease level (%) P6 at 16 ppm (Phakopsora pachyrhizi [2]): 77%

Structure (SMILES): CNC(=O)/C(=N/OC)c1cccc(C)c1CO/N=C(\C)c1cccc(F)n1 [Example 107]
- PHAKPA Disease level (%) P2 at 4 ppm (Phakopsora pachyrhizi [1]): 18%
- PHAKPA Disease level (%) P2 at 16 ppm (Phakopsora pachyrhizi [1]): 0%
- PHAKPA Disease level (%) P6 at 4 ppm (Phakopsora pachyrhizi [2]): 53%
- PHAKPA Disease level (%) P6 at 16 ppm (Phakopsora pachyrhizi [2]): 6%

Structure (SMILES): CNC(=O)/C(=N/OC)c1cccc(C)c1CO/N=C(\C)c1ncnc(Cl)c1F [Example 108]
- PHAKPA Disease level (%) P2 at 4 ppm (Phakopsora pachyrhizi [1]): 73%
- PHAKPA Disease level (%) P2 at 16 ppm (Phakopsora pachyrhizi [1]): 53%
- PHAKPA Disease level (%) P6 at 4 ppm (Phakopsora pachyrhizi [2]): 97%
- PHAKPA Disease level (%) P6 at 16 ppm (Phakopsora pachyrhizi [2]): 87%

Structure (SMILES): CO/N=C(/C(=O)OC)c1cccc(C)c1CO/N=C(/c1nccs1)C1CC1 [Example 109]
- PHAKPA Disease level (%) P2 at 4 ppm (Phakopsora pachyrhizi [1]): 100%
- PHAKPA Disease level (%) P2 at 16 ppm (Phakopsora pachyrhizi [1]): 100%
- PHAKPA Disease level (%) P6 at 4 ppm (Phakopsora pachyrhizi [2]): 87%
- PHAKPA Disease level (%) P6 at 16 ppm (Phakopsora pachyrhizi [2]): 90%

Structure (SMILES): CNC(=O)/C(=N/OC)c1cccc(C)c1CO/N=C(/c1nccs1)C1CC1 [Example 110]
- PHAKPA Disease level (%) P2 at 4 ppm (Phakopsora pachyrhizi [1]): 77%
- PHAKPA Disease level (%) P2 at 16 ppm (Phakopsora pachyrhizi [1]): 6%
- PHAKPA Disease level (%) P6 at 4 ppm (Phakopsora pachyrhizi [2]): 67%
- PHAKPA Disease level (%) P6 at 16 ppm (Phakopsora pachyrhizi [2]): 25%
